The values below come from ChEMBL document CHEMBL1131355 (Bioorg Med Chem Lett, 1998).

The chains behind the UniProt entries cited, without tags or fusion partners.
UniProt P14842, whole entry: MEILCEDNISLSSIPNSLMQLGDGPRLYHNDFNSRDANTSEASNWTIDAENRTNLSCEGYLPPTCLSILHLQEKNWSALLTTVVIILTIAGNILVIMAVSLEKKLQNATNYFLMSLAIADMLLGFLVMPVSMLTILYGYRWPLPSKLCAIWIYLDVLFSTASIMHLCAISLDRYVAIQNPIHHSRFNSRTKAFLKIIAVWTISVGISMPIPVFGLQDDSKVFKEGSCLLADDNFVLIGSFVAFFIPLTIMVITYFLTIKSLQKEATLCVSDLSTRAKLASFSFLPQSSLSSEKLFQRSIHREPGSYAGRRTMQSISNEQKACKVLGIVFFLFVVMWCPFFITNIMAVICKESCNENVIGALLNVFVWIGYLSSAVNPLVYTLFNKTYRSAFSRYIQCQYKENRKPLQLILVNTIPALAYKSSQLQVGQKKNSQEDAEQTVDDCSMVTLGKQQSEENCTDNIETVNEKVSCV

pKi: −log10 of the molar value.

This assay has as its target 5-hydroxytryptamine receptor 2A (Rattus norvegicus, UniProt P14842). Kind of assay: biochemical. The assay is classed as tissue-based, Frontal cortex, Membrane.
Regarding `CCN(CC)CC1CC(=O)c2c(n(C)c3ccccc23)C1` (stereo not drawn), the pKi (as a rule, the Ki on a negative log10 scale, so that one unit is a factor of ten) is less than 5.00.

`O=C1CC(CN2CCOCC2)Cc2[nH]c3ccccc3c21` (stereo not drawn) had a pKi of less than 5.00.

In the case of `CCN(CC)CC1CC(=O)c2c([nH]c3ccccc23)C1` (stereo not drawn), the pKi is less than 5.00.
